## Yeast mating assay 2: variants of the scFv Ab-95

From the AlphaSeq antibody data of Engelhart et al. 2022 (doi:10.1038/s41597-022-01779-4), copy in the FLAb collection.

All variants were tested on one target, the spike HR2 peptide PDVDLGDISGINAS (SARS-CoV-2).

The variants keep the heavy chain, the linker and the frameworks of Ab-95 (scFv order VH, three GGGGS repeats, VL).
VH: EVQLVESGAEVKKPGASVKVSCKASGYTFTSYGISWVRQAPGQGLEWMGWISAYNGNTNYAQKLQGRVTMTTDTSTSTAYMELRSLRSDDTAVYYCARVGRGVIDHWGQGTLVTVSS
VL: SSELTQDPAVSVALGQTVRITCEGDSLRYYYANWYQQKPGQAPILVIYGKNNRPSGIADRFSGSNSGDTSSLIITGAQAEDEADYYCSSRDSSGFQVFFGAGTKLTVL

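The parent was found by panning a naive human phage display library on the peptide. AAYL52 was designed without a model: most single CDR substitutions and a random sample of double and triple ones. The assay is AlphaSeq: two haploid yeast populations carry antibody and antigen on their surface. Pairs that bind mate more often; barcode pairs of the diploids are counted by sequencing. The ratio of observed to expected reads was calibrated, replicate by replicate, on BCL2-family standards whose Kd was known from biolayer interferometry. Mating was done three times.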

Positions count from residue 1 of the parent VL; L27P puts P in place of L. Values are log10 of the apparent Kd in nM; lower means stronger binding. A pair that was not seen in that replicate is written "ND"; this usually means weak binding, but a binder can also be missed. Empty control strains, which show no peptide, gave a signal in 28% of pairings with library AAYL52; the median was 3.91 and 95% of these signals were weaker than 2.90. No background was subtracted. The control count says in how many pairings with the empty strains this scFv gave a signal, with their mean in brackets.

changes,"log10 Kd, replicates",empty controls
L27P F95H,3.48 / 3.81 / 4.40,5 of 9 (3.50)
K50Y R90L,3.39 / 3.25 / 3.11,4 of 9 (3.80)
A32N,2.53 / 3.77 / 2.46,0 of 9
S26V Y30L,2.31 / 2.42 / 2.16,4 of 9 (3.96)
R53I G94R F98S,2.96 / 2.62 / 3.36,5 of 9 (4.27)
Y30D S93N V97C,2.29 / 2.03 / 2.24,0 of 9
A32Y S93I G94C,3.49 / 4.61 / 4.54,4 of 9 (4.71)
G94K Q96E F98G,ND / 3.33 / ND,5 of 9 (4.13)
K50M Q96Y F98A,2.89 / 3.55 / 2.22,2 of 9 (3.61)
L27T Y30G F95V,3.20 / 3.51 / 3.69,2 of 9 (5.10)
G24V N33K S93G,4.00 / 3.75 / 3.86,2 of 9 (4.55)
D25A N33W R90G,ND / ND / ND,3 of 9 (2.90)
A32C S93E Q96E,3.34 / 3.01 / 3.54,2 of 9 (4.62)
D25W Y29V Q96A,3.26 / ND / 3.80,0 of 9
L27D S88A F98A,ND / ND / ND,0 of 9
G49Q S88Y G94K,ND / ND / ND,0 of 9
N51M S93Y F98T,2.64 / ND / 2.29,4 of 9 (3.45)
A32N G94S F95G,3.69 / 3.20 / ND,5 of 9 (3.31)
Y29R A32L S55K,ND / ND / ND,4 of 9 (3.61)
N33T S89I R90N,3.84 / ND / ND,2 of 9 (3.35)
N52E P54D S93F,4.34 / ND / 3.08,0 of 9
N33C S55V S89M,ND / 3.95 / ND,3 of 9 (3.95)
R53P F95S Q96G,ND / 2.84 / ND,4 of 9 (3.70)
G49H N52Y S93V,3.83 / ND / ND,5 of 9 (4.37)
S55Y S88P G94D,2.63 / 2.58 / 2.05,1 of 9 (3.86)
D25L S55E S93A,2.40 / 2.17 / 2.28,3 of 9 (4.23)
G24R Y30D D91S,2.28 / 2.12 / 1.93,2 of 9 (4.11)
Y29N Y30M S92M,1.55 / 1.27 / 0.82,3 of 9 (4.01)
G24P Y31G F98Y,ND / 5.78 / ND,2 of 9 (3.92)
G49K F98H,ND / ND / ND,0 of 9
N33E S92Q F95M,ND / ND / 3.65,1 of 9 (4.61)
Y31T A32K K50A,3.11 / 3.23 / 3.05,4 of 9 (3.70)
N51R S88F Q96P,3.52 / 4.10 / 3.91,3 of 9 (3.74)
L27F A32I F98L,4.21 / 3.12 / 3.27,3 of 9 (4.64)
E23H G24L N52G,3.91 / 2.30 / 2.65,4 of 9 (4.55)
Y30Q Y31N F98W,0.79 / 0.81 / 0.14,6 of 9 (3.93)
L27D Y30M A32F,2.70 / 2.56 / 2.32,3 of 9 (3.85)
S26K S89Y S93K,ND / 3.44 / 3.44,1 of 9 (3.69)
E23P G49S F98M,ND / 3.84 / 4.37,3 of 9 (4.33)
Y29M A32I F95C,ND / ND / ND,1 of 9 (3.33)
G49S S88C Q96P,1.80 / 1.42 / 1.03,4 of 9 (4.37)
Y30S G49I P54L,5.55 / 3.88 / ND,2 of 9 (3.36)
N51H P54A S93I,ND / ND / ND,3 of 9 (4.28)
Y29D Y31R R90H,2.05 / 1.45 / 1.37,4 of 9 (4.06)
G24N Y29Q S92H,2.79 / 2.85 / 1.97,4 of 9 (4.49)
N51W R53E G94N,5.31 / ND / 4.10,1 of 9 (3.95)
S26T N51F S93E,ND / 4.13 / ND,3 of 9 (3.63)
K50R F95P Q96L,2.47 / 2.59 / 2.45,3 of 9 (3.88)

The 4 strongest on average among those seen in every replicate, once more:

changes,"log10 Kd, replicates",empty controls
Y30Q Y31N F98W,0.79 / 0.81 / 0.14,6 of 9 (3.93)
Y29N Y30M S92M,1.55 / 1.27 / 0.82,3 of 9 (4.01)
G49S S88C Q96P,1.80 / 1.42 / 1.03,4 of 9 (4.37)
Y29D Y31R R90H,2.05 / 1.45 / 1.37,4 of 9 (4.06)

Parent in this assay: reference entry 2.31, copy in this library 2.25.